Experimental findings from US4194009A, “Aryloxyphenylpropylamines for obtaining a psychotropic effect” (Eli Lilly and Company, priority 1976, dated 1980) are described below.

Structures are written as SMILES.

The assay deals with serotonin uptake by synaptosomes from rat brain. The assay can be described thus: blockage of serotonin uptake by synaptosomes from rat brain. The class given is biochemical. Conditions: Table 2, serotonin 0.1 μM. The source says:
This blockade is shown both in vitro with radioactive labelled compounds to determine the amount of monoamine uptake by synaptosomes from rat brain, and in vivo by a variety of methods. Among the physiologically active monoamines whose uptake is blocked by the compounds of this invention are included serotonin, norepinephrine and dopamine (3,4-dihydroxyphenylethylamine). […] Tables 1 and 2 which follow set forth the results of some of the in vitro determinations of the blockage of monoamine uptake by the compounds of this invention. In the tables, column 1 gives the R substituent on the 3-phenylpropylamine and columns 2-4, the concentration in micrograms per ml. that blocks the uptake of a particular amine by 50 percent for the amines--norephinephrine, serotonin, and dopamine. At the head of each column is given the concentration of the particular monoamine used in the experiment.

As for `CNCCC(Oc1ccc(C(F)(F)F)cc1)c1ccccc1` (stereo not shown) [p-trifluoromethylpenyl, N-methyl 3-(p-trifluoromethylphenoxy)-3-phenylpropylamine], the “Concentration in mcg./ml. that blocks 50% of amine uptake, Serotonin” value was “.06 µg/mL”.
